In experiment [1] the target is β-secretase I (BACE1) (Homo sapiens, UniProt P56817). Put plainly: Biochemical assay, automated (CyclOps), BACE1. The note with it: automated CyclOps bioassay. The method, then: (§1) Unless otherwise indicated all biochemicals were purchased from Sigma-Aldrich Chemical Company, Poole, Dorset, U.K. and non-aqueous solvents, of analytical or higher grade, were purchased from ThermoFisher Scientific, Loughborough, U.K. MilliQ water (Elix 5 & MilliQ Gradient; Merck Millipore) was used as the base aqueous solvent to make up the biological buffers. Base assay buffer was prepared by adding a 50 mM solution of citric acid (1.00244; Merck Biosciences) to stirring solution of 50 mM trisodium citrate (1.06448; Merck Biosciences) until a final pH of 5.0 was achieved. […] All assays were routinely carried out in 384-well assay plates (Costar 4514; Corning Life Sciences) and incubated at 37±1° C. for 60 min. prior to reading the endpoint fluorescence intensity. The (7-methoxyl coumarin-4-yl)acetic acid based substrate β-secretase substrate VI (M2465; Bachem) was prepared as a 1 mM stock in 100% DMSO (D/4121/PB08; ThermoFisher). Assay buffer was prepared by adding DMSO to base buffer to a final concentration of 1% (vol./vol.). β-secretase I (18.64 μM; “BACE1”) and β-secretase II (4.65 μM; “BACE2”) were obtained from Janssen Pharmaceutica, Beerse, Belgium and were stored as frozen aliquots (˜20 μl) and thawed as required.
(§2) Typically 12.5 μl of assay buffer was dispensed to rows B to P of the assay plate. To row A was added 18.75 μl of test compound diluted appropriately in assay buffer. A 6.25 μl aliquot of sample was transferred from row A to row B and the sample mixed three times by pipette. The process was repeated down the plate and 6.25 μl of solution discarded at row N post-mix. Rows O and P were designated as the positive and negative controls. To row P was added 6.25 μl base buffer. To rows A to O was added 6.25 μl enzyme (freshly prepared 40 nM BACE1 or 40 nM BACE2) diluted in base buffer. To initiate the assay 6.25 μl of freshly prepared 80 μM substrate, made up by diluting the 1 mM in 100% DMSO solution into HPLC grade water (Optima W6-212; ThermoFisher), was added to all the wells. The assay plate was covered and incubated at 37±1° C. for 60 min. The fluorescence intensity of the wells was read at 360/405 nm (excitation/emission) utilising a nine reads per well protocol (50 ms integration; density of 3, 0.25 mm spacing; SpectraMAX Paradigm plate reader; TUNE cartridge; SoftMax Pro v 6.3 software; Molecular Devices UK Ltd., Wokingham, Berkshire, UK) and outputting the median value of the nine reads as a text file. Data analysis was carried out using Prism software v 6.3 (GraphPad Inc., San Diego, Calif., USA) using the non-linear regression analysis models supplied by the vendor. For IC50 determinations the four parameter logistic variable slope model was used to fit the raw fluorescence intensity data with the ‘bottom’ fixed to the negative control.
(§3) The CyclOps bioassay module consisted of a fraction collection station, a reagent station, liquid handling robotics, plate store and an integrated plate reader (SpectraMAX Paradigm, TUNE cartridge, SoftMax Pro v 6.3; Molecular Devices). The fraction collection station composed of a 384 well collection plate (P-384-240SQ-C; Axygen, Union City, Calif., USA) mounted on a H-portal carriage (Festo AG & Co. KG, Esslingen, Germany), a syringe drive and a two-way six port injection valve fitted with a 200 μl loop (VICI AG International, Schenkon Switzerland). The output of the injection valve was addressable to all the positions of a 384 well collection plate. The reagent station consisted of hydraulically cooled (10-12° C.) aluminium segments; each manufactured to house a SBS microtiter plate footprint. Independent addressable reagent stations were housed within these sections. Where required, custom aluminium housings were used to accommodate standard laboratory plastic ware (e.g. Eppendorf tubes, Falcon tubes, etc.). As and when required the reagent reservoirs were covered and the lids contained holes through which the Teflon-coated probe could access solutions. […]

By UniProt entry, the sequences of proteins in these tests, tags left out. Residues count along the entry.
UniProt P56817, 46-501 limits assumed: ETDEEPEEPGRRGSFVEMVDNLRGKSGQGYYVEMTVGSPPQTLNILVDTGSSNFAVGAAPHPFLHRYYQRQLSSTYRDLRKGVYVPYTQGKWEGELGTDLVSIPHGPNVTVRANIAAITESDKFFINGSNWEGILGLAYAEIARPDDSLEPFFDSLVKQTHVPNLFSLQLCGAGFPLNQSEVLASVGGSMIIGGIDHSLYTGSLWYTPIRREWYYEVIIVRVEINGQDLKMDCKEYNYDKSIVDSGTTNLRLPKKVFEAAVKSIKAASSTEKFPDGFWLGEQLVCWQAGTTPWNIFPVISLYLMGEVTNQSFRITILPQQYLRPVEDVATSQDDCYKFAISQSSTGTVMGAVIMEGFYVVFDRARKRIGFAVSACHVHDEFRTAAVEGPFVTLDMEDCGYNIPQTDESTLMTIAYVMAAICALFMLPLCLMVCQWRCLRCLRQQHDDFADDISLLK
UniProt Q9Y5Z0, 63-518 limits assumed: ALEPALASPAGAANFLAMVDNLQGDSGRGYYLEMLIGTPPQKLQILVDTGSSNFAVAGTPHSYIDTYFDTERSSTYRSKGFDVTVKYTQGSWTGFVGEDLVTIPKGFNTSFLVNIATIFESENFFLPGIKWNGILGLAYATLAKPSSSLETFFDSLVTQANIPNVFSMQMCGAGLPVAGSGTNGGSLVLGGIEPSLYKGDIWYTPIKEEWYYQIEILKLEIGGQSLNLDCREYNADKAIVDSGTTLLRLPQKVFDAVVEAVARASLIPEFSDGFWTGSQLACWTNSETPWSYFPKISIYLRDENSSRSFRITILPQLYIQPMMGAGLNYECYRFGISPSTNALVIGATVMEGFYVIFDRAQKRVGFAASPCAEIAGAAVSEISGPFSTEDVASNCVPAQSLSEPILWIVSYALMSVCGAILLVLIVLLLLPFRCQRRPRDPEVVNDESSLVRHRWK

The target in experiment [2] is β-secretase II (BACE2) (Homo sapiens, UniProt Q9Y5Z0). Nature of the experiment: Biochemical assay, automated (CyclOps), BACE2. The following applies: automated CyclOps bioassay. The method, then:
as §1, §2, §3

SMILES strings stand for the structures.

Take `COc1cc(-c2cnc(OC)c3c2C[C@H]2CSC(N)=N[C@@]2(c2ccc(F)cc2F)C3)cc(C(F)(F)F)c1`: in experiment [1], the “AUTOMATED ASSAY BACE1 pIC50” value was found to be 7.52. In experiment [2], the “AUTOMATED ASSAY BACE2 pIC50” value was determined as 6.72.
The matching figures for `COc1ccc(-c2cnc(OC)c3c2C[C@H]2CSC(N)=N[C@@]2(c2cc(OCC4CCOCC4)ccc2F)C3)c(F)c1`: 8.05 and 6.84.
As for `CNc1ccc(-c2cnc(OC)c3c2C[C@H]2CSC(N)=N[C@@]2(c2ccc(F)cc2F)C3)cc1O`, in experiment [1], the “AUTOMATED ASSAY BACE1 pIC50” value stood at 8.28. The “AUTOMATED ASSAY BACE2 pIC50” value in experiment [2] was found to be 8.51.
The corresponding values for `CCOCCOc1ccc(F)c([C@]23Cc4c(OC)ncc(-c5ccccc5F)c4C[C@H]2CSC(N)=N3)c1` are 7.6 and 7.54.
Take `COc1ccc(F)cc1-c1cnc(OC)c2c1C[C@H]1CSC(N)=N[C@@]1(c1cc(OCc3ccccc3C)ccc1F)C2`: in experiment [1] (tested form: free base), the “AUTOMATED ASSAY BACE1 pIC50” value is reported as 5.52. Moreover, in experiment [2] (tested form: free base), the “AUTOMATED ASSAY BACE2 pIC50” value was 5.52.
With `COc1nc(-c2cnc(OC)c3c2C[C@H]2CSC(N)=N[C@@]2(c2ccc(F)cc2F)C3)ccc1-n1cnc(C)c1`, the “AUTOMATED ASSAY BACE1 pIC50” value in experiment [1] was found to be 7.66. For the same compound, the “AUTOMATED ASSAY BACE2 pIC50” value in experiment [2] turned out to be 7.38.
The corresponding values for `COc1ncc(-c2ccc(N3CCCC3)nc2)c2c1C[C@]1(c3ccc(F)cc3F)N=C(N)SC[C@@H]1C2` are 7.96 and 7.6.
The matching figures for `COc1ncc(-c2cncc3ccccc23)c2c1C[C@]1(c3ccc(F)cc3F)N=C(N)SC[C@@H]1C2`: 7.59 and 6.81.
For `COc1ncc(-c2ccccc2Oc2ccccc2)c2c1C[C@]1(c3ccc(F)cc3F)N=C(N)SC[C@@H]1C2`, the “AUTOMATED ASSAY BACE1 pIC50” value in experiment [1] worked out at 6.59. In addition, the “AUTOMATED ASSAY BACE2 pIC50” value in experiment [2] is listed as 6.06.
Turning to `COc1ncc(-c2c(C)noc2C)c2c1C[C@]1(c3cc(OCC4CCCCC4)ccc3F)N=C(N)SC[C@@H]1C2`, the “AUTOMATED ASSAY BACE1 pIC50” value in experiment [1] is 6.53. The “AUTOMATED ASSAY BACE2 pIC50” value in experiment [2] was found to be 5.34.
The corresponding values for `COc1ncc(-c2c(C)nn(C3CCCCO3)c2C)c2c1C[C@]1(c3ccc(F)cc3F)N=C(N)SC[C@@H]1C2` (single isomer, unassigned) [117] are 7.68 and 6.34.
Turning to `COc1ncc(-c2ccccc2C)c2c1C[C@]1(c3cc(OCCOc4ccc(F)cc4)ccc3F)N=C(N)SC[C@@H]1C2`, the “AUTOMATED ASSAY BACE1 pIC50” value in experiment [1] is reported as 7.1. In experiment [2], the “AUTOMATED ASSAY BACE2 pIC50” value amounted to 6.13.
The matching figures for `COc1ccc(OC)c(-c2cnc(OC)c3c2CC2CSC(N)=NC2(c2ccc(F)cc2F)C3)c1` (stereo not drawn): 6.88 and 5.76.
For `COc1cccc(OC)c1-c1cnc(OC)c2c1C[C@H]1CSC(N)=N[C@@]1(c1ccc(F)cc1F)C2`, in experiment [1], the “AUTOMATED ASSAY BACE1 pIC50” value is on record as 6.41. Moreover, in experiment [2], the “AUTOMATED ASSAY BACE2 pIC50” value was 5.66.
The corresponding values for `COc1ccc(C(C)C)cc1-c1cnc(OC)c2c1C[C@H]1CSC(N)=N[C@@]1(c1ccc(F)cc1F)C2` are 6.55 and 5.47.
With `COc1ccc(-c2cnc(OC)c3c2C[C@H]2CSC(N)=N[C@@]2(c2cc(OCC4CCOCC4)ccc2F)C3)c(C)c1`, in experiment [1], the “AUTOMATED ASSAY BACE1 pIC50” value turned out to be 9. In addition, the “AUTOMATED ASSAY BACE2 pIC50” value in experiment [2] turned out to be 6.56.
The corresponding values for `COc1ncc(-c2ccc(C)cc2-n2nc(C)cc2C)c2c1C[C@]1(c3ccc(F)cc3F)N=C(N)SC[C@@H]1C2` are 6.77 and 6.17.
Take `COc1ncc(-c2ccc(F)cc2C)c2c1C[C@]1(c3cc(OCc4ccccn4)ccc3F)N=C(N)SC[C@@H]1C2`: in experiment [1], the “AUTOMATED ASSAY BACE1 pIC50” value is given as 9. Besides, the “AUTOMATED ASSAY BACE2 pIC50” value in experiment [2] amounted to 8.4.
With `COc1ccc(-c2cnc(OC)c3c2C[C@H]2CSC(N)=N[C@@]2(c2cc(OCc4cccnc4)ccc2F)C3)c(C)c1`, in experiment [1], the “AUTOMATED ASSAY BACE1 pIC50” value came to 7.62. The “AUTOMATED ASSAY BACE2 pIC50” value in experiment [2] is 6.61.
`COc1ncc(-c2nn(C)cc2C)c2c1C[C@]1(c3ccc(F)cc3F)N=C(N)SC[C@@H]1C2`: the “AUTOMATED ASSAY BACE1 pIC50” value in experiment [1] is given as 7.92. Further, the “AUTOMATED ASSAY BACE2 pIC50” value in experiment [2] worked out at 7.57.
The matching figures for `COc1ncc(-c2c(C)nn(C3CCCCO3)c2C)c2c1C[C@]1(c3ccc(F)cc3F)N=C(N)SC[C@@H]1C2` (single isomer, unassigned) [116]: 7.6 and 6.28.
The corresponding values for `COc1ccc(-c2cnc(OC)c3c2C[C@H]2CSC(N)=N[C@@]2(c2cc(OCc4nccn4C)ccc2F)C3)c(C)c1` are 7.54 and 6.79.
Take `COc1ncccc1-c1cnc(OC)c2c1C[C@H]1CSC(N)=N[C@@]1(c1ccc(F)cc1F)C2`: the “AUTOMATED ASSAY BACE1 pIC50” value in experiment [1] is 7.2. Besides, the “AUTOMATED ASSAY BACE2 pIC50” value in experiment [2] is listed as 6.41.
The matching figures for `COc1ncc(-c2ccccc2CC#N)c2c1C[C@]1(c3ccc(F)cc3F)N=C(N)SC[C@@H]1C2`: 7.85 and 6.75.
The matching figures for `CC#CCOc1ccc(F)c([C@]23Cc4c(OC)ncc(-c5ccccc5OC)c4C[C@H]2CSC(N)=N3)c1`: 5.39 and 4.82.
Turning to `CCn1ccnc1COc1ccc(F)c([C@]23Cc4c(OC)ncc(-c5ccccc5F)c4C[C@H]2CSC(N)=N3)c1`, the “AUTOMATED ASSAY BACE1 pIC50” value in experiment [1] is reported as 7.29. Moreover, the “AUTOMATED ASSAY BACE2 pIC50” value in experiment [2] was 7.2.
The corresponding values for `COc1ncc(-c2cn(C)c3ccccc23)c2c1C[C@]1(c3ccc(F)cc3F)N=C(N)SC[C@@H]1C2` are 8.05 and 7.18.
The corresponding values for `COc1ncc(-c2cc(N3CCCC3)ccn2)c2c1C[C@]1(c3ccc(F)cc3F)N=C(N)SC[C@@H]1C2` are 7.68 and 7.31.
The corresponding values for `COc1ncc(-c2cnc3c(c2)OCCN3C)c2c1C[C@]1(c3ccc(F)cc3F)N=C(N)SC[C@@H]1C2` are 7.4 and 6.64.
Consider `COc1ncc(-c2ccccc2OC(C)C)c2c1C[C@]1(c3ccc(F)cc3F)N=C(N)SC[C@@H]1C2`, for which the “AUTOMATED ASSAY BACE1 pIC50” value in experiment [1] is given as 6.15. Besides, in experiment [2], the “AUTOMATED ASSAY BACE2 pIC50” value turned out to be 5.2.
The matching figures for `COc1ccc(-c2cnc(OC)c3c2C[C@H]2CSC(N)=N[C@@]2(c2cc(OCc4cc(C)on4)ccc2F)C3)c(C)c1`: 8.3 and 8.22.
The matching figures for `COc1ncc(-c2cccs2)c2c1C[C@]1(c3ccc(F)cc3F)N=C(N)SC[C@@H]1C2`: 8.41 and 8.92.
With `COc1ncc(-c2cccc3cnn(C)c23)c2c1C[C@]1(c3ccc(F)cc3F)N=C(N)SC[C@@H]1C2` [Compound 127], the “AUTOMATED ASSAY BACE1 pIC50” value in experiment [1] is on record as 6.84. The “AUTOMATED ASSAY BACE2 pIC50” value in experiment [2] is 5.57.
The corresponding values for `COc1ccc(-c2cnc(OC)c3c2C[C@H]2CSC(N)=N[C@@]2(c2ccc(F)cc2F)C3)c(C)c1` are 8.77 and 8.08.
The matching figures for `COc1ncc(-c2c(C)noc2C)c2c1C[C@]1(c3cc(OCC(C)C)ccc3F)N=C(N)SC[C@@H]1C2`: 7.77 and 7.03.
The matching figures for `COc1ncc(-c2c(C)noc2C)c2c1C[C@]1(c3cc(OCc4nn(C)c5ccccc45)ccc3F)N=C(N)SC[C@@H]1C2`: 6.88 and 5.6.

The record behind these values is patent US20200010482A1, “INHIBITORS OF BETA SECRETASE” (Janssen Pharmaceutica NV, priority 2017, published 2020).
